Molecules are shown by their SMILES.

In this assay the target is T1, N-acylethanolamine-hydrolyzing acid amidase (Rattus norvegicus, UniProt Q5KTC7).
T1 sequence (Q5KTC7 whole entry): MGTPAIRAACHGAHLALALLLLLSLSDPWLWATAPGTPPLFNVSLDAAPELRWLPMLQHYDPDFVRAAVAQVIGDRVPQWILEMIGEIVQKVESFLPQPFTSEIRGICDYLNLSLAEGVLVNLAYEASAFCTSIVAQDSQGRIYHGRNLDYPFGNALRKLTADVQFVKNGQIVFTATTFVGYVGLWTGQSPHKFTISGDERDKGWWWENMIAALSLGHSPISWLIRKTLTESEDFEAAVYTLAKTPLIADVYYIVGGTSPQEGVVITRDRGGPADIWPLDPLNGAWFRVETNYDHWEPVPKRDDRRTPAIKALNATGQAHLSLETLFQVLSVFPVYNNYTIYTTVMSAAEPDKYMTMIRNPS
Kind of assay: Inhibition of NAAA in Sprague-Dawley rat lung assessed as inhibition of hydrolysis of 10-cis-heptadecenoylethanolamide by UPLC/MS method. The essentials:
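Native NAAA enzyme prepared from rat lungs, not a recombinant construct. The substrate, 10-cis-heptadecenoylethanolamide, is an unnatural fatty acid ethanolamide. Inhibition of its hydrolysis was measured, and the median inhibitory concentration (IC50) was reported.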

With `C[C@@H]1OC(=O)[C@@H]1NC(=O)OC1CCCCC1`, the IC50 is 5.42 µM.
On to `C[C@@H]1OC(=O)[C@@H]1NC(=O)OCC(C)(C)CCc1ccccc1`, for which the 50% inhibitory concentration (IC50) was found to be 3.43 µM.

These data come from ChEMBL document CHEMBL3351654, “Synthesis, biological evaluation, and 3D QSAR study of 2-methyl-4-oxo-3-oxetanylcarbamic acid esters as N-acylethanolamine acid amidase (NAAA) inhibitors” (J Med Chem, 2014).
